The values that follow come from patent US7220875B2, “Amino acid derived prodrugs of propofol, compositions and uses thereof” (priority 2003, dated 2007).

Data set [1] in a line: Enzymatic cleavage of prodrugs in vitro, human plasma. The data set is classed as in vitro ADME. The conditions noted are these: substrate 2.0 μM, 37° C. How it is done:
(§1) The stability of propofol prodrugs were evaluated in one or more in vitro systems using a variety of tissue preparations following methods known in the art. Tissues were obtained from commercial sources (e.g., Pel-Freez Biologicals, Rogers, Ark., or GenTest Corporation, Woburn, Mass.). Experimental conditions used for the in vitro studies are described in Table 1 below. Each preparation was incubated with test compound at 37° C. for one hour. Aliquots (50 μL) were removed at 0, 30, and 60 min and quenched with 0.1% trifluoroacetic acid in acetonitrile. Samples were then centrifuged and analyzed by LC/MS/MS (see Examples 59 and 60 below for method details). Stability of drug conjugates towards specific enzymes (e.g., peptidases, etc.) were also assessed in vitro by incubation with the purified enzyme: […]

A short description of data set [2]: Enzymatic cleavage of prodrugs in vitro, human liver S9. The class given is in vitro ADME. The conditions noted are these: Human Liver S9 (0.5 mg/mL), substrate 2.0 μM, NADPH, 37° C. The procedure: as §1
The subject of the next data set is pancreatin. Put plainly: Pancreatin stability. The data set is classed as in vitro ADME, porcine. The conditions noted are these: 1% (w/v) pancreatin, pH 7.5, conjugate 5 μM, 37° C. The procedure:
(§2) The stability of propofol prodrugs were evaluated in one or more in vitro systems using a variety of tissue preparations following methods known in the art. Tissues were obtained from commercial sources (e.g., Pel-Freez Biologicals, Rogers, Ark., or GenTest Corporation, Woburn, Mass.). Experimental conditions used for the in vitro studies are described in Table 1 below. Each preparation was incubated with test compound at 37° C. for one hour. Aliquots (50 μL) were removed at 0, 30, and 60 min and quenched with 0.1% trifluoroacetic acid in acetonitrile. Samples were then centrifuged and analyzed by LC/MS/MS (see Examples 59 and 60 below for method details). Stability of drug conjugates towards specific enzymes (e.g., peptidases, etc.) were also assessed in vitro by incubation with the purified enzyme:
Pancreatin Stability: Stability studies were conducted by incubating conjugate (5 μM) with 1% (w/v) pancreatin (Sigma, P-1625, from porcine pancreas) in 0.025 M Tris buffer containing 0.5 M NaCl (pH 7.5) at 37° C. for 60 min. The reaction was stopped by addition of 2 volumes of methanol. After centrifugation at 14,000 rpm for 10 min, the supernatant was removed and analyzed by LC/MS/MS.

A short description of data set [3]: Caco-2 homogenate S9 stability. The class given is in vitro ADME. Particulars: Caco-2 S9 (0.5 mg protein per mL), prodrug 5 μM, 37° C. How it is done: as §2
Caco-2 Homogenate S9 Stability: Caco-2 cells were grown for 21 days prior to harvesting. Culture medium was removed and cell monolayers were rinsed and scraped off into ice-cold 10 mM sodium phosphate/0.15 M potassium chloride, pH 7.4. Cells were lysed by sonication at 4° C. using a probe sonicator. Lysed cells were then transferred into 1.5 mL centrifuge vials and centrifuged at 9000 g for 20 min at 4° C. The resulting supernatant (Caco-2 cell homogenate S9 fraction) was aliquoted into 0.5 mL vials and stored at −80° C. until used.
For stability studies, prodrug (5 μM) was incubated in Caco-2 homogenate S9 fraction (0.5 mg protein per mL) for 60 min at 37° C. Concentrations of intact prodrug and released propofol were determined at zero time and 60 minutes using LC/MS/MS.

Data set [4] is described as follows: Enzymatic cleavage of prodrugs in vitro, rat plasma. The data set is classed as in vitro ADME. Particulars: substrate 2.0 μM, 37° C. The procedure:
as §1

The nature of data set [5]: Enzymatic cleavage of prodrugs in vitro, rat liver S9. Particulars: Rat Liver S9 (0.5 mg/mL), substrate 2.0 μM, NADPH, 37° C. The class given is in vitro ADME. How it is done:
as §1

Consider H-Lys-Glu(OPropofol)-OH [Compound 250], for which the “% of Propofol Released from Propofol Prodrugs after 60 min.” value (from here on “% of Propofol Released”) is listed as 17% in data set [1]; 34% in data set [2]; 0% with pancreatin; 19% in data set [3]; 79% in data set [4]; 36% in data set [5].
Regarding “H-Ser-Ser(β-OC(O)OPropofol)-OH [Compound 208]”, the “% of Propofol Released” value in data set [1] amounted to 2%; in data set [2] it was 3%; with pancreatin, 25%; in data set [3], 21%.
“H-Ala-OPropofol Hydrochloride [Compound 152]”: the “% of Propofol Released” value in data set [1] is reported as 0%; in data set [2], 8%; with pancreatin, 1%; in data set [3] it was 6%; in data set [4], 37%; in data set [5], 11%.
